This passage reports Ki, EC50 and IC50 results from ChEMBL document CHEMBL4350957, “Use of the 4-Hydroxytriazole Moiety as a Bioisosteric Tool in the Development of Ionotropic Glutamate Receptor Ligands” (J Med Chem, 2019).

Sequences of proteins named here, by UniProt entry; tags and fusion partners are left off. A change or cut given only in a name is not applied to a line headed by its entry.
UniProt P19490: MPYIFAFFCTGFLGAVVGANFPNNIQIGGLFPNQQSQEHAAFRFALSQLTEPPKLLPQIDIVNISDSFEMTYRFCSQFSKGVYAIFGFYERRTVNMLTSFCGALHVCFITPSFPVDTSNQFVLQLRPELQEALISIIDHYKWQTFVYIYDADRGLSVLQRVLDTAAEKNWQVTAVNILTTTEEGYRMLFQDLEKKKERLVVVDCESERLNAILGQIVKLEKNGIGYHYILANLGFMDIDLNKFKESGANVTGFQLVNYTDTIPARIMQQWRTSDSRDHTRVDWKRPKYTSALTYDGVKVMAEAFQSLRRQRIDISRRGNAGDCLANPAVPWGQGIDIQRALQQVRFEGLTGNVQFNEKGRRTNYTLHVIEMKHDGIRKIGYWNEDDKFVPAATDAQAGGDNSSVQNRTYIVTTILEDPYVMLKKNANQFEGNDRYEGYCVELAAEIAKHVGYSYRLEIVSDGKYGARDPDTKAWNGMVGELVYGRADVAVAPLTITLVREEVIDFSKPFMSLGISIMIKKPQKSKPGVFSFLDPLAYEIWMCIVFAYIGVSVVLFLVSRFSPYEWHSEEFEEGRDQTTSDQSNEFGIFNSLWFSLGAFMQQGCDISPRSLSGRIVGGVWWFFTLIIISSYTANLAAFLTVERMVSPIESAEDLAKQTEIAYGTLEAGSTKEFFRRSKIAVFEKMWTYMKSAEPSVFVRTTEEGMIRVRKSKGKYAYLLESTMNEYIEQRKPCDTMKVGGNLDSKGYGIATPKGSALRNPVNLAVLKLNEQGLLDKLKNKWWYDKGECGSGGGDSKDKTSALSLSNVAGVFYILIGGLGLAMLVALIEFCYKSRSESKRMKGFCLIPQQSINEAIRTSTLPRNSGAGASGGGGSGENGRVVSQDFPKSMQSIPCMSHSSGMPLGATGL
UniProt P48058: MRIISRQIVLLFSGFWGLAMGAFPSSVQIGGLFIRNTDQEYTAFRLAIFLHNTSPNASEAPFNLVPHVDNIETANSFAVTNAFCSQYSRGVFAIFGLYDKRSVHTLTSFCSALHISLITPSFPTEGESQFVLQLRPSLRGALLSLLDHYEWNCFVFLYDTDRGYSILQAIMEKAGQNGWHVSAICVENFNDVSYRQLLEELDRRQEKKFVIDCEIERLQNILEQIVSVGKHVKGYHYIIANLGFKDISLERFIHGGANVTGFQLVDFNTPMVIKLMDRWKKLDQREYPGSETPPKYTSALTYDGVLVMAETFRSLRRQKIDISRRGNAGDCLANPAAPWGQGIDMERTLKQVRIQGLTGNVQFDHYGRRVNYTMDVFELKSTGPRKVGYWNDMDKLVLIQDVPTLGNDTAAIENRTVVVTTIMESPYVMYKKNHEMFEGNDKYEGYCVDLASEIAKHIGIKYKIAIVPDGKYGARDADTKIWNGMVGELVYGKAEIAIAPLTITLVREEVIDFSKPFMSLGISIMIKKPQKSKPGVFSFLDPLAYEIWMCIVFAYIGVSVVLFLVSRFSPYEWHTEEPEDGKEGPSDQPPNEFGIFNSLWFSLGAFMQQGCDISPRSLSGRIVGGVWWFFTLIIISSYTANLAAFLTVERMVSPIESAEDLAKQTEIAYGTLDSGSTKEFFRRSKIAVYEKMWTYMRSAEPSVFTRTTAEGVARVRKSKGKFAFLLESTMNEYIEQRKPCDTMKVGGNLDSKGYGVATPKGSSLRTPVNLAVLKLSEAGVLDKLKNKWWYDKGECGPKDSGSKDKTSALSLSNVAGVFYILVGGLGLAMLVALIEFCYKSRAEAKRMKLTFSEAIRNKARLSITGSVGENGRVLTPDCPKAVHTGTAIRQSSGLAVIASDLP
UniProt P19492: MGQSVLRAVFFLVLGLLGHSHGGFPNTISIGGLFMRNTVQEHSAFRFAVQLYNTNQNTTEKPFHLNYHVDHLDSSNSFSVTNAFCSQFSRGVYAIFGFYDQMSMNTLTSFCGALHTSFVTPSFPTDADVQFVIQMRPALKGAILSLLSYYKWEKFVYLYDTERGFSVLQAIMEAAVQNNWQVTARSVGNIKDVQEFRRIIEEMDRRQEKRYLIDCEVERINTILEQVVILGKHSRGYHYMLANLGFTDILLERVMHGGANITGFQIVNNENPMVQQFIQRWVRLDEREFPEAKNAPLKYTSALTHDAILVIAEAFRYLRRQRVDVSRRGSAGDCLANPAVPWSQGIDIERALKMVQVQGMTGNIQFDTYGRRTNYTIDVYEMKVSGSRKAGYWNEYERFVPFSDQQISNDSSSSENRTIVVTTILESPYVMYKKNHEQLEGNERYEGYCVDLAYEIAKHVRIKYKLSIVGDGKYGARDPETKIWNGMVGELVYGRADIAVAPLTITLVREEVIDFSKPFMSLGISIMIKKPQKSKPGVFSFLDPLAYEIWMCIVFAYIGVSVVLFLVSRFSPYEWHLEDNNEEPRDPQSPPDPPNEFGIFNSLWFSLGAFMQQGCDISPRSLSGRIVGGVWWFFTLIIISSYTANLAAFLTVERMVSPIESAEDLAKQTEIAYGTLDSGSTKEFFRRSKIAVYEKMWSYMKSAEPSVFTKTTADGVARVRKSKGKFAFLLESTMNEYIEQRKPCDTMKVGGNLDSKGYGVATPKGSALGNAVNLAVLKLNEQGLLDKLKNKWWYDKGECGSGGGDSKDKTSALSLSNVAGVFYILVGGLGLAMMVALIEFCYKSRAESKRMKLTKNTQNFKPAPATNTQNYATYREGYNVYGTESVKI
UniProt P19493: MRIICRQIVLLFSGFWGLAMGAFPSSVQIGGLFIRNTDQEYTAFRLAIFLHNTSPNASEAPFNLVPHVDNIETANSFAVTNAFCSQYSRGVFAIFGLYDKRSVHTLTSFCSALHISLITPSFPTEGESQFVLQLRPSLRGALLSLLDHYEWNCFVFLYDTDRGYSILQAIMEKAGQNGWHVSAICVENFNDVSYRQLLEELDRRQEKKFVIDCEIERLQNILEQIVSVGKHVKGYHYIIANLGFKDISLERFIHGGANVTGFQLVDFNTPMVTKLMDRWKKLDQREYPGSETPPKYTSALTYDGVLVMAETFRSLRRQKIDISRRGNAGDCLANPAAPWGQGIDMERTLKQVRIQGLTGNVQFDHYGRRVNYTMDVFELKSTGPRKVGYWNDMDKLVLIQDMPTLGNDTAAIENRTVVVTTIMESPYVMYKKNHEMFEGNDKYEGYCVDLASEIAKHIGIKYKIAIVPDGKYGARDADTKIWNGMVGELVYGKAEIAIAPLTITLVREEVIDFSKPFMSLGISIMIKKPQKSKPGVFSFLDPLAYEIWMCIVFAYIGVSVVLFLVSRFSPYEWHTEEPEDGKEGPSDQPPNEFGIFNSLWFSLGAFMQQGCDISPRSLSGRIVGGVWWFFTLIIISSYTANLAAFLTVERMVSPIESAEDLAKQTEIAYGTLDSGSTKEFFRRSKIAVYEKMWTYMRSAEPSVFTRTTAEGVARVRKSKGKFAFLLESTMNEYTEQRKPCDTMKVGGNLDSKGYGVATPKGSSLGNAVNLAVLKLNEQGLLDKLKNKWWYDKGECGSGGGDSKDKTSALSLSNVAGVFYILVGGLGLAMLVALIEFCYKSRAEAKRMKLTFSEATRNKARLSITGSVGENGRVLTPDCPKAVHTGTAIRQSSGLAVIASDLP
UniProt P19491: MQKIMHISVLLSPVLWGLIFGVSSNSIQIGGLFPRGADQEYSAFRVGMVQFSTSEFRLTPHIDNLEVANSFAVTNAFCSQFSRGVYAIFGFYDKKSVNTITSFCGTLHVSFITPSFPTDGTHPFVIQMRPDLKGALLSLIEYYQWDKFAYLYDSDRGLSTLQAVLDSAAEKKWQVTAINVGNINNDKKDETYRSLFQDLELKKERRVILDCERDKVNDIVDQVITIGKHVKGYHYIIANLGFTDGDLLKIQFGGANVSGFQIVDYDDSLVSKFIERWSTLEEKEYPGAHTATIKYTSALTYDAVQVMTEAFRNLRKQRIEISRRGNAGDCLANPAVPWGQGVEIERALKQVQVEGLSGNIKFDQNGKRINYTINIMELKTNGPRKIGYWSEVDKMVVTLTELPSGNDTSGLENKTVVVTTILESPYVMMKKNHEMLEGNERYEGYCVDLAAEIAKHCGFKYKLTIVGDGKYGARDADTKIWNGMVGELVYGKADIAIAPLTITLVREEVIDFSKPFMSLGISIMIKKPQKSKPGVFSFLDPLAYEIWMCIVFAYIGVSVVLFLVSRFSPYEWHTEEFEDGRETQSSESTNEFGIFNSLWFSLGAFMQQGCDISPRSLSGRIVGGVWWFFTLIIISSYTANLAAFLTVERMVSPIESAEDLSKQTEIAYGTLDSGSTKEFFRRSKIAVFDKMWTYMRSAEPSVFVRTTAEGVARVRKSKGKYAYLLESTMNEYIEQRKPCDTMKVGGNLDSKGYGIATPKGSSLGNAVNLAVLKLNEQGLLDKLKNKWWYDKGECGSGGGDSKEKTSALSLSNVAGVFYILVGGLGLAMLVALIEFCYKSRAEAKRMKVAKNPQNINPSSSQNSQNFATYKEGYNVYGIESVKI

SMILES strings stand for the structures.

One test has as its target Glutamate receptor 1 (Rattus norvegicus, UniProt P19490). The experiment in a line: biochemical.
Test [1] addresses Glutamate receptor 4 (Homo sapiens, UniProt P48058).
The target of a further test is Glutamate receptor 3 (Rattus norvegicus, UniProt P19492). The experiment in a line: biochemical.
Test [2] deals with Glutamate receptor 4 (Rattus norvegicus, UniProt P19493). The experiment in a line: biochemical.
Test [3] has as its target Glutamate NMDA receptor; Grin1/Grin2c (Rattus norvegicus, UniProt P35439+Q00961).
In test [4] the target is Glutamate NMDA receptor; Grin1/Grin2b (Rattus norvegicus, UniProt P35439+Q00960).
The target in test [5] is Glutamate receptor ionotropic, AMPA (Rattus norvegicus, UniProt P19490+P19491+P19492+P19493).

As for `Cn1nnc(O)c1CC(N)C(=O)O` (racemic), the Ki at Glutamate receptor 1 turned out to be 15.7 µM; at Glutamate receptor 3, 4.98 µM; at Glutamate receptor 4 [2], 4.08 µM. This compound also came in with an EC50 at Glutamate receptor 4 [1] of 55 µM.

Regarding `Cn1nc(O)c(C(N)C(=O)O)n1` (racemic), the EC50 in test [3] was 90 µM; in test [4], 108 µM. Further, the affinity at Glutamate NMDA receptor corresponds to a Ki of 34 µM.

In the case of `CCCn1nnc(O)c1CC(N)C(=O)O` (racemic), the Ki was determined as 54.1 µM at Glutamate receptor 1 and 11.9 µM at Glutamate receptor 3. Also, the half-maximal inhibitory concentration (IC50) in test [5] stood at 5.2 µM.

One may read the Ki as a dissociation constant, usually derived from enzyme kinetics or from competition with a known ligand. Higher therefore signals weaker binding. One may read the EC50 as the concentration needed to bring the measured effect to its halfway point. A lower EC50 goes with an effect from little substance. For orientation: IC50 means the concentration at which inhibition is half-maximal. Low readings indicate greater potency in that assay, high ones weaker potency in that assay.
